# Screening data as filed in PubChem.
# In the library only some 0.43% were active in any assay of this set; here they are far more common.
# MmCpn inh: M. maripaludis TRiC chaperonin inhibition; purified Mm-Cpn ATPase, ADP Transcreener TR-FRET; Potency, µM (doses to about 76.9 µM), for inactives: at the highest dose activity, negative = inhibition, most hits filed as inhibitors; 0.031% of 330,000 active; active = well fitted curve in the direction sought with a large enough effect; inconclusive = small, poorly fitted or top-dose-only effect, or another doubt; inactive = no such curve, though single readings can be large; an effect the other way counts as inactive or inconclusive; note: potency is the fitted concentration of half-maximal effect; % is set by controls: 0 for no effect and ±100 for the full control effect; nearly all actives have a fitted effect of over 80% in size
#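 Inhibition of chaperonin ATP hydrolysis is measured as reduced ADP production, detected by competitive TR-FRET in which signal falls with ADP. Final enzyme 25 nM and ATP 10 uM, reacted 30 min at 37°C.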
# Rango complex inh: prevents formation of the Rango-importin beta complex; Q14974; Rango CFP/YFP FRET sensor + importin beta, 45 min; Potency, µM (top dose mostly 92.2 µM), inactives show top-dose inhibition of complex formation; 0.031% of 340,000 active;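 note: potency is the fitted concentration of half-maximal effect; 0% = DMSO wells and 100% = buffer wells lacking importin beta; nearly all actives have a fitted effect of over 15% in size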
#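 Inhibition scored from the CFP 486 nm/YFP 530 nm FRET ratio 45 min after adding 0.125 microM importin beta to 50 nM Rango biosensor preincubated 5 min with compound (room temperature, PBS with DTT, Tween-20, BSA). No-importin wells as positive control.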
# Rango dissoc inh: prevents RanGTP from dissociating the Rango-importin beta complex; Potency, µM (titrated, usually from 46.1 µM), inactives show at the highest dose activity change, negative = inhibition; O95149+P62826; AID 540253; Biochemical FRET Rango-importin beta, RanGTP-induced dissociation; 0.071% of 340,000 active; note: potency is the fitted concentration of half-maximal effect; % of control where 0% means no effect; nearly all actives have a fitted effect of over 45% in size
#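 Rango/importin beta premix (0.1/0.25 uM final), PBS + 1 mM DTT + 0.02% Tween-20 + 0.1% BSA; cpd 5 min RT; FRET pre-read; + RanGTP-RCC1 (0.6 uM Ran, 2 mM GTP, 0.2 uM RCC1); 45 min RT; FRET post-read, ex 430, em 486/530 nm.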
# B2AR arrestin: recruits beta-arrestin to the human beta2-adrenergic receptor; P07550; 0.02% of 330,000 active; AID 492947; Potency, µM (top dose mostly 46.1 µM), for the others: top-dose activation, hits mostly activators; beta-arrestin recruitment to beta2AR, cell-based reporter; active = well fitted curve in the direction sought with a large enough effect; inconclusive = small, poorly fitted or top-dose-only effect, or another doubt; inactive = no such curve, though single readings can be large; an effect the other way counts as inactive or inconclusive;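 note: potency is the fitted concentration of half-maximal effect; 0% = DMSO controls and full agonism = EC100 isoproterenol or metaproterenol; nearly all actives have a fitted effect of over 65% in size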
# CCT chaperon mod: modulators of cytosolic chaperonin (CCT/TRiC) activity | purified chaperonin ATPase assay, HTRF ADP detection, 30 min | activity change, % (test concentration not listed), hits read low | 0.3% of 360,000 active | AID 651819; in the data active = activity change below about -30%; note: % is set by controls: 0 for no effect and ±100 for the full control effect
#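 First, chaperonin was dispensed at 40 nM or 20 nM final depending on batch activity. Next, compounds were pinned at 76 uM and ATP added at 10 uM. After 30 min at 37 °C, ADP detection reagents ran 30 min at ambient temperature.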
# The depositor's hits bear a star; ? = inconclusive; . = no result given; [ ] = remark or other dose. Unless noted, calls come from the whole dose curve.
(1) COCCOC(=O)c1c(C)oc2ccc(O)c(CN3CCC(C)CC3)c12 (tested in a mixture with another compound)
(2) CCCCCCCCNS(=O)(=O)CCNCCc1ccccc1
(3) CCC(C)NC(=O)CNC(=O)c1nn(-c2ccc(OC)cc2OC)c(=O)c2ccccc12 (centres undefined)
(4) Cc1ccc(CSc2nc3sc(C)c(C)c3c(=O)n2Cc2ccco2)cc1
(5) Cc1sc2nc(SCc3ccccc3)n(Cc3ccco3)c(=O)c2c1C
(6) CN(C)c1ccc(NC(=O)COC(=O)c2cc(Cl)ccc2[N+](=O)[O-])cc1
(7) CN(C)CCCNc1ccc(S(N)(=O)=O)cc1[N+](=O)[O-]
(8) COc1ccccc1-c1sc2cc3c(cc2c1C#Cc1ccccn1)OCO3
(9) CCOC(=O)C1=C(C)NC(=O)C(C(N)=O)C1c1ccccc1 (centres undefined)
(10) Cn1c(SCc2cccc([N+](=O)[O-])c2)nc2ccccc2c1=O

Screen / compound no.,1,2,3,4,5,6,7,8,9,10
MmCpn inh,.,.,1%,-3%,-1%,2%,1%,32µM*,-1%,0%
Rango complex inh,-2%,73µM*,-2%,5%,-2%,-3%,-2%,?,0%,1%
Rango dissoc inh,-10%,44%,-2%,4%,-6%,-5%,?,-29%,0%,-7%
B2AR arrestin,.,.,0%,1%,0%,0%,0%,0%,0%,0%
CCT chaperon mod,-2,-2,-1,-31*,-1,-90*,2,0,-1,-39*

(11) COCCn1c(SCc2cccc([N+](=O)[O-])c2)nc2ccccc2c1=O
(12) CCCCn1c(=O)[nH]c(=O)c2c1nc(-c1ccc(-c3ccccc3Br)o1)n2CCOC
(13) COCCn1c(-c2ccc(-c3ccccc3Cl)o2)nc2c1c(=O)[nH]c(=O)n2CC(C)C
(14) CN1CCN(C(=O)C2CCC(=O)N(CCc3cccc(F)c3)C2)CC1 (centres undefined)
(15) COc1ccc(N(CC(=O)Nc2cc(Cl)ccc2C)S(=O)(=O)c2c(C)n[nH]c2C)cc1
(16) Cc1csc2nc(NC(=O)c3ccccc3)sc(=O)c12
(17) Cc1csc2c(=O)sc(NC(=O)c3ccc(F)cc3)nc12
(18) CSc1ccc(C2=CC(=O)C[C@H](c3ccc(F)cc3)C2)cc1
(19) CCCc1nc(SCC(=O)N2CCN(c3ccccc3)CC2)c2c(=O)n(C)c(=O)n(C)c2n1
(20) Cn1c(=O)c2c(SCC(=O)N3CCOCC3)nc(-c3ccccc3Cl)nc2n(C)c1=O

Screen / compound no.,11,12,13,14,15,16,17,18,19,20
MmCpn inh,0%,-3%,2%,-7%,-5%,0%,-21%,-8%,0%,1%
Rango complex inh,1%,-5%,?,1%,1%,?,-2%,-1%,-4%,0%
Rango dissoc inh,?,1%,6.5µM*,8%,7%,5.8µM*,-7%,-5%,24%,-12%
B2AR arrestin,0%,0%,0%,-1%,0%,0%,-1%,0%,0%,-1%
CCT chaperon mod,1,-3,0,0,-59*,0,-3,-39*,-39*,-30*

# Quoted from the listing:
# no. 15 | B2AR arrestin = 0%
# no. 14 | Rango complex inh = 1%
# no. 16 | MmCpn inh = 0%

# Continued:
(21) Cc1cccc(CN2C(=O)N/C(=C/c3cc(C)n(-c4cc(C)ccn4)c3C)C2=O)c1
(22) Cc1cccc(CN2C(=O)N/C(=C/c3ccc(C)s3)C2=O)c1
(23) O=C(Nc1ccc2c(c1)OCCO2)c1oc2ccccc2c1NC(=O)C1CC1
(24) CCC(=O)Nc1c(C(=O)Nc2ccc3c(c2)OCCO3)oc2ccccc12
(25) O=C1N=C(N2CCOCC2)S/C1=C/c1cccs1
(26) CC1Oc2ccccc2C=C1/C=C1/SC(N2CCOCC2)=NC1=O (centres undefined)
(27) COc1ccc(NC(=O)Nc2ccc(F)c(F)c2)c(OC)c1
(28) CCOc1ccc(-n2nc3ccc(N)cc3n2)cc1
(29) COc1ccc(-n2nc3ccc(N)cc3n2)cc1
(30) O=C(Nc1ccc(Cl)c(Cl)c1)c1ccccc1
(31) Cc1cccc(Cc2nnc(CCC(=O)N(C)CCc3ccccc3)o2)c1

Screen / compound no.,21,22,23,24,25,26,27,28,29,30,31
MmCpn inh,-4%,1%,4%,-3%,-1%,0%,-13%,-5%,.,1%,-6%
Rango complex inh,?,?,-5%,-8%,-2%,?,1%,?,.,-1%,21µM*
Rango dissoc inh,13µM*[inhibitor],?,12%,19%,-8%,?,7%,5.2µM*,.,-5%,10%
B2AR arrestin,-1%,0%,0%,0%,0%,-1%,0%,-1%,.,0%,2%
CCT chaperon mod,-1,-7,-45*,-2,-3,-39*,0,0,1,-50*,-2

# Entries shown so far containing an NH in an aromatic ring:
(12) CCCCn1c(=O)[nH]c(=O)c2c1nc(-c1ccc(-c3ccccc3Br)o1)n2CCOC
(13) COCCn1c(-c2ccc(-c3ccccc3Cl)o2)nc2c1c(=O)[nH]c(=O)n2CC(C)C
(15) COc1ccc(N(CC(=O)Nc2cc(Cl)ccc2C)S(=O)(=O)c2c(C)n[nH]c2C)cc1

Screen / compound no.,12,13,15
MmCpn inh,-3%,2%,-5%
Rango complex inh,-5%,?,1%
Rango dissoc inh,1%,6.5µM*,7%
B2AR arrestin,0%,0%,0%
CCT chaperon mod,-3,0,-59*
